Assay results published in patent US9730928B2, “Trizol-1-OL analogs anti-retroviral latency drugs” (priority 2013, dated 2017).

Key:
Format in all cases: cell-based, human
STAT5 = STAT5 phosphorylation by flow cytometry in cultured TCM
Method: The levels of STAT5 phosphorylation were analyzed by flow cytometry after incubating cultured TCM with HOAt, IL-2, or a combination of both, during a 24 h period (FIG. 4B). STAT5 phosphorylation could be only slightly detected in the absence of either IL-2 or HOAt at 30 min.

JAK3 = assay: Phosphorylation of JAK3; settings: IL-2 alone or in the presence of HOAt
Excerpt: (§1) Engagement of γc-cytokines to its receptors leads to a signaling cascade initiated by the phosphorylation and activation of the janus kinases JAK1 and JAK3. These kinases then phosphorylate and activate the transcription factors STATs.

JAK1 = assay: Phosphorylation of JAK1; settings: IL-2 alone or in the presence of HOAt
Excerpt: as §1

IL-2: γc-cytokine required for survival of the cells
STAT5 phosphorylation at 30 min, agent alone (STAT5; 30 min): dramatically increase the levels of STAT5 phosphorylation | STAT5 phosphorylation after 24 hrs, agent alone (STAT5; 24 hrs): decreased to basal levels | phosphorylation of JAK3 (JAK3): increases phosphorylation | phosphorylation of JAK1 (JAK1): increases phosphorylation
